Laboratory results published in patent US20240261374A1, “PHARMACEUTICAL COMPOSITION AND KIT COMPRISING AN IMMUNOMODULATORY SUBSTANCE FOR TREATING DISEASES” (ellennbe GmbH, priority 2021, published 2024).

System: rheumatoid arthritis
Test: Treatment of patients suffering from rheumatoid arthritis (CRP, tender/swollen joints, HAQ, patient's statement)
Format: in vivo, human
Conditions: Patient 7; not the treatment of the invention
Excerpt: The investigation and determination of the joint condition has been performed by a physician or rheumatologist. A tender joint (TJ) was pressure sensitive but not necessarily swollen. […] The amount of TJ and SJ was counted. A reduction in the amounts of TJ and/or SJ, respectively, was an indication for a reduction in inflammation, mitigation of the disease and an improvement of the patient's health condition.
The CRP (C-reactive protein) is the most important blood laboratory value for detecting and monitoring inflammation in the body. It was determined by a certified laboratory. A low CRP indicates the absence of an inflammation, while a high CRP is indicative for an inflammation to be present.
The HAQ (Health assessment Questionnaire) is a standardized questionnaire to assess disability due to inflammatory rheumatic joint disease like polyarthritis, rheumatoid arthritis, psoriatic arthritis, polymyalgia rheumatic etc. Patients completed this questionnaire themselves, assessing their ability to perform the following activities in eight daily functional domains: Dressing, getting up, eating, walking, personal hygiene, handing objects, grasping, other activities.
The functional disability index (HAQ) is the average of the highest numerical values reported for each of the eight different domains. High HAQ-scores correspond to a high degree of disability. […]

Substance: abatacept: selective immunosuppressive inhibiting T-cell activation
- Effectiveness of earlier or basic treatment (patient history): insufficient effectiveness
